Source: ChEMBL document CHEMBL4706672, “Discovery of a Napabucasin PROTAC as an Effective Degrader of the E3 Ligase ZFP91” (J Med Chem, 2021)
The source made the active and inactive calls. No cut-off for these calls is given here.

Sequences of proteins named here, by UniProt entry; tags and fusion partners are left off. A change or cut given only in a name is not applied to a line headed by its entry.
UniProt P40763, whole entry: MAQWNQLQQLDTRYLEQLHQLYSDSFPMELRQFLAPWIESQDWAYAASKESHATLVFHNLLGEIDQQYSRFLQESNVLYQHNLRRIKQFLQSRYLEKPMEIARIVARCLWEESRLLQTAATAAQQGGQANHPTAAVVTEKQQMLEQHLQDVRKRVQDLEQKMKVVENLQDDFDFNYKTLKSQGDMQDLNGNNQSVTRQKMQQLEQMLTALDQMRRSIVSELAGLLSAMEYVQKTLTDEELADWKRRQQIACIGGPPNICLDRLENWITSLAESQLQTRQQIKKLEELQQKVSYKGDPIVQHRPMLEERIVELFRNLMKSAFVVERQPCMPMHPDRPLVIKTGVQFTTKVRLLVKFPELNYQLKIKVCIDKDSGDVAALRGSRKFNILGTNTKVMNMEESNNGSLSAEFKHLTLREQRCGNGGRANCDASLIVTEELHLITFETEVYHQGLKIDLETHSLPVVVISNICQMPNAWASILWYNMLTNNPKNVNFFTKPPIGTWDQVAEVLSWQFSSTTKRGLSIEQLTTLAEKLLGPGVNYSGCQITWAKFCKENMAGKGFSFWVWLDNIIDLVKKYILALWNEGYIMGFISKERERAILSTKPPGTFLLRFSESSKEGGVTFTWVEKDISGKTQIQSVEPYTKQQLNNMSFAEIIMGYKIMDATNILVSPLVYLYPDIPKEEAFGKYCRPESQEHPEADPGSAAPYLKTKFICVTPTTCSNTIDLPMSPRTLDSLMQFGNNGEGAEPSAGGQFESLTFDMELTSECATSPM
UniProt Q96SW2: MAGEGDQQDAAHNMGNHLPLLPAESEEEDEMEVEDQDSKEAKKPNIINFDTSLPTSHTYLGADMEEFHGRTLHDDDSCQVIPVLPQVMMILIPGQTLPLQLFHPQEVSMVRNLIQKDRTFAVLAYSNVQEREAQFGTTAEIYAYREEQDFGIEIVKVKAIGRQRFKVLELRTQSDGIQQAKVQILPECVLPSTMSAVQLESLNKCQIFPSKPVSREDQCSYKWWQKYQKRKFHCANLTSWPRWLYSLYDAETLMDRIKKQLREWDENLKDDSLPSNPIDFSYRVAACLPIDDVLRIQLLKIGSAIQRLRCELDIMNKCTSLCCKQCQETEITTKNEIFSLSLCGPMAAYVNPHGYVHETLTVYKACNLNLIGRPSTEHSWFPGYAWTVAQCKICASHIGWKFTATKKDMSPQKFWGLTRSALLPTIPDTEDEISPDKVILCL

Columns and labels:
Type in all cases: cell-based
[1] = target: Signal transducer and activator of transcription 3 (Homo sapiens) (UniProt P40763); test: Inhibition of STAT3 in human BxPC-3 cells assessed as thermal stability by measuring shift in melting temperature at 100 uM measured after 1 hr by cellular thermal shift assay
[2] = target: T1, Protein cereblon/Signal transducer and activator of transcription 3 (Homo sapiens, UniProt P40763+Q96SW2); test: Protac activity at CRBN/STAT3 in human MIA PaCa-2 cells assessed as effect on STAT3 expression levels at 1 uM incubated for 16 hrs by western blot analysis
[3] = target: T1, Protein cereblon/Signal transducer and activator of transcription 3; test: Protac activity at CRBN/STAT3 in human BxPC-3 cells assessed as effect on GSPT1 protein expression level at 2 uM incubated for 16 hrs by western blot analysis
[4] = target: Signal transducer and activator of transcription 3 (Homo sapiens) (UniProt P40763); test: Inhibition of STAT3 phosphorylation in human MIA PaCa-2 cells 1 uM after 16 hrs by western blot analysis

CC(=O)c1cc2c(o1)C(=O)c1ccccc1C2=O [NAPABUCASIN]
Activity [1]: Active
Activity [2]: inactive
Activity [3]: inactive
inhibition [4]: Active
